According to US20250305059A1, “[…] COLORECTAL CANCER” (UNIVERSITY OF SOUTH FLORIDA, priority 2024, published 2025):

Columns and labels:
metastatic CRC patients = experiment: Kaplan-Meier progression free survival analysis, BMS (Khambata-Ford) cetuximab clinical trial dataset; type: in vivo, human
From the text: (§1) The potential of the EPI^S score vs. the TME^S score was examined to predict outcomes in metastatic CRC patients treated with cetuximab in two independent clinical trial datasets (BMS (Khambata-Ford), Merck (PN04)). Higher EPI^S scores were highly associated with longer progression free survival (PFS) in the BMS dataset with all patients regardless of KRAS mutation status) (n=80, Logrank trend P=0.0005, median survival (days): 103.5 (Q4, highest) vs. 53 (Q1, lowest)) and in the subset of WT KRAS patients (n=43, P=0.0062, median survival (days): 135.0 (Q4) vs. 49.5 (Q1)) (FIGS. 8A and 8B).
(§2) The PN04 dataset had 44 WT KRAS CRC samples selected from the control arm (cetuximab+irinotecan) of a Merck prospective clinical trial (MK0646), whereas the public available Khambata-Ford dataset was from a BMS trial including 80 cetuximab-treated CRC patient samples among which 43 had WT KRAS. The Affymetrix data was used to examine the ability of the 10-gene EPI^S(vs. 10-gene TME^S) signature score in predicting progression free survival (PFS) in cetuximab-treated metastatic patients.
Statistical analyses, including Kaplan Meier (KM) survival, Spearman correlation, heatmap, Welch's t Test, Cramer's V Test, and CMS and PDS classifications were performed using GraphPad Prism 10.0.2, SAS 9.4 and R version 4.3. The statistical tests with an α=0.05 were chosen as the significance level. In addition, for the Welch t test in comparison among multiple subgroups, adjusted p values after adjustments for multi-comparisons by Holm-Bonferroni method were indicated. All tests were two-sided unless indicated otherwise.

[1] = test system: WT KRAS metastatic CRC patients; experiment: Kaplan-Meier progression free survival analysis, Merck (PN04) cetuximab clinical trial dataset; type: in vivo, human; settings: WT KRAS patients (n=44), control arm (cetuximab+irinotecan)
From the text: as §1, §2
Statistical analyses, including Kaplan Meier (KM) survival, Spearman correlation, heatmap, Welch's t Test, Cramer's V Test, and CMS and PDS classifications were performed using GraphPad Prism 10.0.2, SAS 9.4 and R version 4.3. The statistical tests with an α=0.05 were chosen as the significance level. […]

## cetuximab
Metastatic CRC patients; all patients regardless of KRAS mutation status (n=80), EPI^S score quartile Q1, lowest
  median survival (progression free survival): 53 days
Metastatic CRC patients; all patients regardless of KRAS mutation status (n=80), EPI^S score quartile Q4, highest
  median survival (progression free survival): 103.5 days
Metastatic CRC patients; subset of WT KRAS patients (n=43), EPI^S score quartile Q1
  median survival (progression free survival): 49.5 days
Metastatic CRC patients; subset of WT KRAS patients (n=43), EPI^S score quartile Q4
  median survival (progression free survival): 135.0 days
[1]; EPI^S score quartile Q1
  median survival (progression free survival): 75.5 days
[1]; EPI^S score quartile Q4
  median survival (progression free survival): 208.0 days
